One assay deals with turkeys. The experiment in a line: Ulna bone mineral density (DEXA) after fracture and neurectomy in the turkey. In kind it is in vivo. To be noted: group A, p<0.01. An excerpt: Turkeys are kept in common cages, 10 turkeys/cage. The turkeys have free access to water and are fed ad libitum.
Another assay concerns piglets. Nature of the assay: Growth (bodyweight) and bone mineralisation during postnatal life of the pig. It is filed as in vivo. On the procedure:
All piglets suckled sow milk before weaning. After weaning at the age of 28 days piglets were fed ad libitum with a standard mixture Premix prestarter (PP) (Food plant-Motycz, Poland) and free access to water was allowed. Piglets were allotted to three experimental trials:
2—Second group, receiving 0.4 g/kg/b.w. of L-alanyl-L-glutamine (ala-gln), (2 ml solution/kg b.w.)
3—Third group, receiving 0.4 g/kg/b.w. α-keto-glutaric sodium salt, AKG, (2 ml solution /kg b.w.) once a day from the first day to the 35th day of life.
Animal weight gain was monitored every day before oral administration of saline, ala-gln or AKG. At the age of 35 days, piglets were sacrificed, eviscerated and bones were sampled.

Take α-keto-glutaric sodium salt [AKG]: in the assay on turkeys (left wing control (intact)), the “BMD-Vi (Volumetric index) of the ulna bone, difference compared to the saline treated turkeys” value is recorded as 14.8%. The “BMD-Vi (Volumetric index) of the ulna bone, AKG effect compared to the saline treated turkeys” value in the assay on turkeys (right wing experimental (neurectomized, fracture)) is reported as “about 35.7%”. The “Bodyweight of the piglets” value with piglets (compared with control group and Ala-Gln group, p>0.01 in comparison to Ala-Gln (so in the source)) is “more dramatic”. In the assay on piglets (versus piglets receiving placebo), the “Bone mineralisation in piglets” value is on record as “higher”.

Values taken from US9233088B2, “Use of glutamate, glutamate derivatives or metabolites, glutamate analogues or mixtures thereof for the manufacture of a composition for the treatment of osteoporosis” (Protista Biotechnology AB, priority 2001, dated 2016).
